Reference: paper PMC3408606 (Thrombosis and haemostasis, 2011)

Protein sequences, listed by entry. Tags and fused reporters are not part of them. Residues count along the entry.
UniProt Q18NS7, 19-182 limits assumed: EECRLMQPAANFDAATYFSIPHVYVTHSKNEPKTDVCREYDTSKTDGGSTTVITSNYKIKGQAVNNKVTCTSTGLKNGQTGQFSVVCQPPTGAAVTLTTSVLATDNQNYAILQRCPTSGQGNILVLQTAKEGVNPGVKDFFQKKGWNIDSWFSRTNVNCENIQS

Target: triplatin (Triatoma infestans, UniProt Q18NS7)

| SMILES | N (stoichiometry of ligand binding) |
| --- | --- |
| CCCCC[C@H](O)/C=C/[C@@H]1[C@@H](C/C=C\CCCC(=O)O)[C@H]2CO[C@@H]1C2 [U46619] | 0.876 |
| CCCCC[C@H](O)/C=C/[C@H]1CC2CC(C2)[C@@H]1C/C=C\CCCC(=O)O [cTXA2] | 0.917 |
| CCCCC[C@H](O)/C=C/[C@H]1C(=O)C=C[C@@H]1C/C=C\CCCC(=O)O [PGJ2] | 1.080 |
| CCCCC[C@H](O)/C=C/[C@H]1OC(O)C[C@H](O)[C@@H]1C/C=C\CCCC(=O)O (stereo partly shown) [TXB2] | 0.285 |
